From patent publication US20230203052A1, “ACYCLIC CUCURBITURILS, METHODS OF MAKING SAME, AND USES THEREOF” (University of Maryland, College Park, priority 2020, published 2023)
Only a part of the results on these compounds is given; other tests are left out.

Key:
[1] = tested on: male Swiss Webster (CFW) mice; assay: In vivo reversal of methamphetamine-induced hyperlocomotion; details: 4.24 mM in D5W, 0.5 mg/kg, 0.022 mL infused; against all other treatments
[2] = ITC binding of guests to host 1 (direct or competitive titration); details: comparison of Table 1 values

## methamphetamine
[1]
  Locomotion counts, methamphetamine only: significant increase in locomotion counts
[2]
  Binding of host 1 compared with M1 (in words): less tightly than M1
